Legend:
[1] = target: Thrombin and coagulation factor VII (Homo sapiens) (UniProt P00734+P08709); experiment: Selectivity for F7a/TF over F2a; assay type: protein assay
Procedure, shortened: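 FVIIa (7 nM) with soluble tissue factor (11 nM) was run in 1.5 mM EDTA. Thrombin (12.7 nM) was run in 1 mM EDTA with Tosyl-Gly-Pro-Lys-pNA at Km. Hydrolysis was followed at 405 nm, and apparent Ki came from a Morrison equation fit.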

Chains of the proteins cited; added tags and fusions are not shown. Lines headed by an entry give the natural chain unless they say otherwise; changes in a name come on top.
UniProt P08709: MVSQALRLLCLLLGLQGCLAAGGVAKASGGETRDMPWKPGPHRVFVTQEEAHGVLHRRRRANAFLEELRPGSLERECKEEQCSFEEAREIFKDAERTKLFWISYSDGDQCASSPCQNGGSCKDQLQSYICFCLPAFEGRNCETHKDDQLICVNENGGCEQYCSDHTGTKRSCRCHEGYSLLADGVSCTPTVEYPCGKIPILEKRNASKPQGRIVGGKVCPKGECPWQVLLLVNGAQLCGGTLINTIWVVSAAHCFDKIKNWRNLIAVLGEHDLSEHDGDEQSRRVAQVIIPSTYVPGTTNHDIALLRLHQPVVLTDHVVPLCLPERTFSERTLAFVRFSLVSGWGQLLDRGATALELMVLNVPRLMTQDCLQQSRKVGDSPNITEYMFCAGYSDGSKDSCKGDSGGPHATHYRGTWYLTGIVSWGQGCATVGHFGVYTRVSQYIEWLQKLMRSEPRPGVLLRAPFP
UniProt P00742, whole entry, looked up: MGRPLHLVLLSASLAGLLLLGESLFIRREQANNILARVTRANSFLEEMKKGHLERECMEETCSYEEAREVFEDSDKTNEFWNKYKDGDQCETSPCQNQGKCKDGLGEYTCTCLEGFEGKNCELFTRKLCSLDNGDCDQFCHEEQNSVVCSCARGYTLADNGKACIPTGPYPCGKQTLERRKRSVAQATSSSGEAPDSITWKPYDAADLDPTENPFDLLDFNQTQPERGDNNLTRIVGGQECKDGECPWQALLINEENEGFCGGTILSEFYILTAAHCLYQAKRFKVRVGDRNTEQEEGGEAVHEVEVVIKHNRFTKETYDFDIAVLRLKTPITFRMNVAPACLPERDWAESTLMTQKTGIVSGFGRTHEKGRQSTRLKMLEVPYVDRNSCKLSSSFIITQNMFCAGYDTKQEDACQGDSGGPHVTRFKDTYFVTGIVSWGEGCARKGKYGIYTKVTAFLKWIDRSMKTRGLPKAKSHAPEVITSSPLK
UniProt P13726: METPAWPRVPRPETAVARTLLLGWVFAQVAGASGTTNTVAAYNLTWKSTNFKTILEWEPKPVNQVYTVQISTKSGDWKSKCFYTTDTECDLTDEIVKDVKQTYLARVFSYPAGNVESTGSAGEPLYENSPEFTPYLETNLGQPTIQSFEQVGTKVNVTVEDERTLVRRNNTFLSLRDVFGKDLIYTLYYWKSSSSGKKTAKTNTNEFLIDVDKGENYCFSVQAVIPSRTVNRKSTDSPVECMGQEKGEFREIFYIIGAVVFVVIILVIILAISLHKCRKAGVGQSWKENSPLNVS

[2] = target: Coagulation factor VII and X (Homo sapiens) (UniProt P00742+P08709); experiment: Selectivity for F7a/TF over F10a; assay type: protein assay
Procedure, shortened: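 Reactions were started with pNA substrate at Km and read as A405 over time. Ki was fitted with the Morrison tight-binding equation.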

[3] = target: Coagulation factor VII/tissue factor (Homo sapiens) (UniProt P08709+P13726); experiment: Selectivity for F7a/TF over trypsin; assay type: protein-complex assay
Procedure, shortened: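 Trypsin (10 nM) was tested without CaCl2, using Tosyl-Gly-Pro-Lys-pNA at Km. Readout was kinetic A405, and Ki was fitted with the Morrison tight-binding equation.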

For `NC(=O)NCc1cccc(-c2cccc(-c3cc4c[nH]ccc-4n3)c2O)c1`, the Ratio Ki [1] was 89, the Ratio Ki [2] was 156 and the Ratio Ki [3] was 58.

Reference: ChEMBL document CHEMBL1148511, “Novel 5-azaindole factor VIIa inhibitors” (Bioorg Med Chem Lett, 2006)
